Values quoted from earlier work as cited in US9072749B2, “Treatment of age-related macular degeneration” (priority 2007, dated 2015).

Test system: D1/D5 receptor
Settings: anesthetized rabbits

Which choroidal vasodilation does the source give for `Oc1cc2c(cc1O)C(c1ccccc1)CNCC2` (stereo not shown) [SKF-38393] here?
The choroidal vasodilation was “caused a similar vasodilation”.
